Measured values reported in PubChem BioAssay AID602277 (University of Pittsburgh Molecular Library Screening Center, 2012).
The list shows a part of the results, in another mix than the full data. Activity calls are given as the source filed them.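 The calls were made as follows: active = inhibition of the reporter signal at or above 50%; inactive = inhibition below 50%.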

assay: inhibitors of poly I:C-induced TLR3 signaling, primary screen, cell-based, poly I:C stimulus, luciferase, 10K MLSCN set (AID 602277); conditions: HEK293-TLR3 RL24 IRF3 luciferase reporter, at 10 µM, stronger effect = higher value

Row | Structure (SMILES) | inhibition
1 | CP(=S)(Nn1cnnc1)Oc1ccccc1 (stereo not given) | inactive: 15.7%
2 | Cc1ccc(C)c(NP(C)(=O)Oc2ccccc2)c1 (stereo not given) | inactive: 29.7%
3 | CN(C)CCOC(=O)C(O)(c1ccccc1)C1CCCCC1 (stereo not given) | inactive: 10.8%
4 | CP(=O)(Nc1ccc2c(c1)OCCO2)Oc1ccccc1 (stereo not given) | inactive: 11.2%
5 | CP(=O)(Nc1ccccn1)Oc1ccccc1 (stereo not given) | inactive: 19.9%
